Molecules are shown by their SMILES. This is a selection; strong and weak results do not stand in their true shares. Activity calls are given as the source filed them.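 Rule for the calls: active = nuclear translocation activity above 50% at 5 µM, with a well cell count of 50 or more; inconclusive = wells under 50 cells across six images, flagged as toxic; inactive = the rest.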

This assay in a line: beta-catenin nuclear localization change in HeLa – imaging, HeLa cells, immunofluorescence, high-content, primary screen (AID 1665).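 Note: per-cell ratio of nuclear to cytoplasmic median beta-catenin stain intensity; plate controls were DMSO negative control for no effect and GSK-3 inhibitor IX positive control for full effect.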 The settings on record: at 5 µM, stronger effect = higher value. The method, boiled down: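 assay system = human HeLa cells, endogenous beta-catenin | times = compound treatment 24 h, 37°C, 5% CO2 | detection = Anti-beta-catenin immunofluorescence on PFA-fixed, Triton-permeabilized cells, DAPI nuclei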
With `c1ccc(CN2CCC(Nc3ccccc3)CC2)cc1`, the nuclear translocation activity is inactive: -0.4%.

In the case of `N#Cc1ccc(C(=O)NCC2(N3CCCCC3)CCCCC2)cc1`, the nuclear translocation activity is inactive: -1.5%. The same measure for `O=C(OC1CN2CCC1CC2)C1c2ccccc2C=Cc2ccccc21` (configuration not stated): inactive: -0.6%. The same measure for `N/C(=N\O)c1c(N)no[n+]1[O-]`: inactive: -2.8%. The same measure for `COc1ccc(C(=O)NCC2(N3CCOCC3)CCCCC2)cc1OC`: inactive: -0.7%. Take `CCCOc1ccc(C)cc1CN(CCCl)CCCl`: the nuclear translocation activity was inactive: -0.8%. The same measure for `COc1cc(OC)cc(C(=O)NCC2(N3CCOCC3)CCCCC2)c1`: inactive: -3%; for `CCC(CO)(C(=O)OC1CN2CCC1CC2)c1ccccc1` (configuration not stated): inactive: 2%; for `CC(C)(C)OC(=O)N1CCC(Nc2ccccc2)CC1`: inactive: -3.1%. Regarding `CCOc1ncccc1C(=O)NCC1(N2CCOCC2)CCCCC1`, the nuclear translocation activity is inactive: -4.1%. Turning to `CN(C)c1ccc(C(=O)NCC2(N3CCCCC3)CCCCC2)cc1`, the nuclear translocation activity is inactive: -0.6%. For the molecule `CCN1CCC(Nc2cccc(F)c2)CC1`, the nuclear translocation activity was inactive: -3.4%.

For the molecule `Fc1ccccc1NC1CCN(Cc2ccccc2)CC1`, the nuclear translocation activity was inactive: -1.4%. Take `Cc1ccc(OCC(C)C)c(CN(CCCl)CCCl)c1`: the nuclear translocation activity is inactive: 0.3%. The result for `COc1ccc(NC2CCN(CCc3ccccc3)CC2)c(OC)c1` reads inactive: -4.5%; that for `CCOc1ccc(C)cc1CN(CCCl)CCCl`, inactive: -4.1%. The same measure for `N#CC1(Nc2ccccc2)CCN(Cc2ccccc2)CC1`: inactive: -1%; for `O=C(OC1CN2CCC1CC2)C1c2ccccc2Oc2ccccc21` (configuration not stated): inactive: -4.1%. The same measure for `O=C(NCC1(N2CCOCC2)CCCCC1)c1cc2ccccc2o1`: inactive: -3.1%; for `COc1ccc(C(=O)NCC2(N3CCCCC3)CCCCC2)c(OC)c1OC`: inactive: 0.5%; for `CC(C)c1ccc(NC2CCN(C(=O)OC(C)(C)C)CC2)cc1`: inactive: -1.5%. Consider `CN(C)c1cccc(C(=O)NCC2(N3CCCCC3)CCCCC2)c1`, for which the nuclear translocation activity was inactive: 1%.

Take `COc1ccc(CN(CCCl)CCCl)cc1Cl`: the nuclear translocation activity is inactive: -1%. The result for `CN1CCN(CCOC(=O)C(O)(c2ccccc2)c2ccccc2)CC1` reads inactive: -2%. The same measure for `COc1ccc(NC2CCN(C(=O)OC(C)(C)C)CC2)cc1`: inactive: -0.2%; for `N#CC1(Nc2ccccc2)CCN(CCc2ccccc2)CC1`: inactive: -0.4%; for `O=C(NCC1(N2CCCCC2)CCCCC1)c1cccc([N+](=O)[O-])c1`: inactive: -4.1%.

The values above are taken from PubChem BioAssay AID1665 (Sanford-Burnham Center for Chemical Genomics, 2009).
